In data set [1] the target is T1, Amine oxidase [flavin-containing] B (Homo sapiens, UniProt P27338).
In data set [2] the target is T1, Amine oxidase [flavin-containing] B. Nature of the data set: Inhibition of recombinant human MAO-B using kynuramine as substrate assessed as decrease in 4-hydroxyquinoline production incubated for 20 mins by fluorescence spectrophotometry.
The species entered for the next data set is Homo sapiens. Nature of the data set: Selectivity index, ratio of IC50 for recombinant human MAO-A to IC50 for recombinant human MAO-B incubated for 20 mins.
Data set [3] can be described thus: Cytotoxicity against rat PC12 cells assessed as cell survival at 100 uM after 24 hrs by MTT assay relative to control. The format is toxicity, PC-12. The settings on record: read-out: Survival. For orientation: Tetrazolium assays rely on reduction of a dye to a coloured formazan, in cell work by metabolically active cells.
A short description of data set [4]: Cytotoxicity against rat PC12 cells assessed as cell survival at 20 uM after 72 hrs by MTT assay relative to control. The format is toxicity, PC-12. The settings on record: read-out: Survival.

By UniProt entry, the sequences of proteins in these tests, tags left out.
UniProt P27338, whole entry: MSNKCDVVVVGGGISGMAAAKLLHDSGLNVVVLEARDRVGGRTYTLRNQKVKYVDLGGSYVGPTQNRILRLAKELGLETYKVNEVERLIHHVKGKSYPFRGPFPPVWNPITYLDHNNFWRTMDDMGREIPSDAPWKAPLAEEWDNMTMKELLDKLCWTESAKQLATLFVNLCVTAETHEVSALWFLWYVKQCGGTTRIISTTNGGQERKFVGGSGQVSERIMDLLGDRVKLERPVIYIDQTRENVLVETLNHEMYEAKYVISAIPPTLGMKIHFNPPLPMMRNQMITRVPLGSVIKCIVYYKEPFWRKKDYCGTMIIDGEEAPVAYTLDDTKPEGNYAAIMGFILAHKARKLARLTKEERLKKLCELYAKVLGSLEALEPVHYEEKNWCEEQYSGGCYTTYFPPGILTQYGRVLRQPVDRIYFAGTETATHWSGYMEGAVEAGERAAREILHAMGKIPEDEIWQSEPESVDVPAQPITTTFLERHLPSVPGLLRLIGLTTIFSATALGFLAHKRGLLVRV

Molecules are shown by their SMILES.

In general, IC50 refers to the concentration that gives 50% inhibition. For the molecule `O=C1CCc2ccc(OCc3cccc(Br)c3)cc2N1`, in data set [1], the IC50 is 8.17 nM. Still for that read-out and setting: to `O=C1CCOc2cc(OCc3ccc(Cl)cc3)ccc21` belongs 42 nM; to `CC1(C)CC(=O)c2ccc(OCc3ccc(Cl)cc3)cc2O1`, 39.2 nM. In turn, `O=c1ccoc2cc(OCc3ccc(F)cc3)ccc12` displayed an IC50 in data set [1] of 63.2 nM.

Take `CC(=O)c1ccc(OCc2ccc(F)cc2)cc1O`: the IC50 in data set [1] worked out at 28.4 nM; in data set [2], 3 nM. In data set [1], `O=c1ccoc2ccc(OCc3ccc(F)cc3)cc12` had an IC50 of 15.6 nM. Turning to `CC(=O)c1ccc(OCc2cccc(Cl)c2)cc1O`, the figures for the IC50 in data set [1] and in data set [2] were 25.1 nM and 1.3 nM, respectively. In the data set filed under Homo sapiens, the Ratio IC50 was found to be 13600. In data set [1], `O=C1CCCc2cc(OCc3ccc(Cl)cc3)ccc21` displayed an IC50 of 7.21 nM. In data set [1], `O=c1ccoc2ccc(OCc3ccc(Cl)cc3)cc12` yielded an IC50 of 25.3 nM. The molecule `O=C1OCc2cc(OCc3ccc(F)cc3)ccc21` showed an IC50 in data set [1] of 8.35 nM.

With `CC(=O)c1ccc(OCc2ccc(Cl)cc2)cc1O`, the IC50 in data set [1] was 42.7 nM.

`CC(=O)c1ccc(OCc2ccc(F)cc2)cc1F` gave an IC50 in data set [1] of 56.9 nM. `CC(=O)c1ccc(OCc2ccc(F)cc2)cc1`: half-maximal inhibition in data set [1] (IC50) was put at 15.5 nM.

Turning to `O=c1ccoc2cc(OCc3cccc(Cl)c3)ccc12`, the IC50 in data set [1] stood at 43.4 nM. For the same molecule, the Ratio IC50 in the data set listed under Homo sapiens is 89. As for `O=c1ccoc2cc(OCc3ccc(C(F)(F)F)cc3)ccc12`, the midpoint of inhibition in data set [1], the IC50, lay at 27.8 nM.

Turning to `CC(=O)c1cccc(OCc2ccc(Cl)cc2)c1`, inhibition in data set [1] was half-maximal at 10.5 nM (IC50).

In data set [1], `CC(=O)c1cccc(OCc2ccc(Br)cc2)c1` displayed a 50% inhibitory concentration (IC50) of 92.4 nM. In turn, `O=C1CCc2ccc(OCc3cccc(Cl)c3)cc2N1` returned an IC50 in data set [1] of 14.3 nM. For the molecule `CC(=O)c1ccc(OCc2cccc(F)c2)cc1O`, the values for the IC50 in data set [1] and in data set [2] were 41.4 nM and 2.8 nM, respectively. Moreover, in the data set filed under Homo sapiens, the Ratio IC50 was found to be 17800. Regarding `CC1(C)CC(=O)c2ccc(OCc3ccc(F)cc3)cc2O1`, half-maximal inhibition in data set [1] (IC50) required 12.8 nM. The molecule `CC(=O)c1ccc(OCc2ccc(Cl)cc2)cc1F` had an IC50 in data set [1] of 52.9 nM. `O=C1OCc2cc(OCc3ccc(C(F)(F)F)cc3)ccc21` gave a concentration for half-maximal inhibition (IC50) in data set [1] of 6.41 nM. Moreover, in data set [3], the viability at 24 h, 100 µM is 81.9%. For the molecule `CC(=O)c1ccc(OCc2cccc(Cl)c2)cc1`, in data set [1], inhibition was half-maximal at 25.3 nM (IC50).

Regarding `CC(=O)c1ccc(OCc2cccc(F)c2)cc1F`, it took 96.5 nM to reach half-maximal inhibition in data set [1] (IC50).

Turning to `O=C1OCc2cc(OCc3ccc(Cl)cc3)ccc21`, in data set [1], the IC50 is 13.9 nM. In the case of `CC(=O)c1ccc(OCc2cccc(Cl)c2)cc1F`, the IC50 in data set [1] came out at 13.2 nM. Moreover, in data set [4], the viability at 72 h, 20 µM was 132%.
